Ab-14 light chain CDR variants: yeast mating affinities

Binding partner: SARS-CoV-2 spike HR2 peptide, sequence PDVDLGDISGINAS.

Parent: Ab-14, a human scFv built as VH, three GGGGS repeats, VL. Only the CDRs of the light chain vary.
VH: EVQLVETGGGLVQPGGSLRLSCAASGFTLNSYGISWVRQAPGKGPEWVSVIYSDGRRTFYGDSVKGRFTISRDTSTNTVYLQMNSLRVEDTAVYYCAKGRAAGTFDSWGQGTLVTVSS
VL: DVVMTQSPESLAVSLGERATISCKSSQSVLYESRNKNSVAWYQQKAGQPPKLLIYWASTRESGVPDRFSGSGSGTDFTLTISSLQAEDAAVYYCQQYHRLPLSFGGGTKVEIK

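The parent was found by panning a naive human phage display library on the peptide. The variants were designed computationally from a first round of random CDR variants and then made and measured. Group labels follow the data file (Ctrl: baseline library sampled from a position-specific scoring matrix, with some repeated check sequences; En: ensemble of fine-tuned language models; GP: Gaussian process model; HC: hill climbing; Gen: genetic algorithm; Gibbs: Gibbs sampling; a sequence that several methods proposed may carry one label only). In AlphaSeq, yeast of one mating type display the scFv and yeast of the other type display the target. Mating (16 h, 30 °C) was followed by selection of diploids and sequencing of their barcodes. The ratio of observed to expected reads was calibrated, replicate by replicate, on BCL2-family standards whose Kd was known from biolayer interferometry. The assay was run in six technical replicates.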

Each variant is given by its three light chain CDRs, as the data file delimits them; those of the parent are KSSQSVLYESRNKNSVA, WASTRES, QQYHRLPLS.
This list holds designs with more than six substitutions.
Kd is apparent (estimated from mating counts) and averaged on the log scale over replicates with a signal. Smaller is tighter.
Where no diploid with the target was found in any replicate, the entry reads "nd": below detection, most likely a poor binder, though not proof of it.
The authors' rule: three or more of the six replicates give a measured affinity, fewer mean a poor binder.

Variant TLGQSTLMESRNKNNVA / QMSTREK / QQYHRLPLS [En_HC] gave 1.2 nM (6 of 6 replicates).
Variant TISQSFLMENQFKNSVA / QAQTRES / QCYDRLPLS [En_HC] gave 320 nM (2 of 6 replicates).
Variant HIPIKLPGNWKMMDSVA / HSALRAE / QQYARLPLM [En_Gibbs] gave 2.0 nM (6 of 6 replicates).
Variant HVHMECAEEKNKYYNIA / DASMRLA / QQYVRLPLG [En_Gibbs] gave 4.7 nM (6 of 6 replicates).
Variant IITQSVMSESKNKRNVA / NTSERED / QQYDRLPLI [En_HC] gave 16 nM (6 of 6 replicates).
Variant KVYGGINFQSSARNSIA / EETMRQD / QQYARLPLS [En_Gen] gave 2.3 nM (6 of 6 replicates).
Variant TLTQVQGMESHNKDSVA / DLSTRGS / QQYHRLPLS [En_HC] gave 14 nM (5 of 6 replicates).
Variant KLSWSVELESRLKNSVA / NASTREW / QQYHRLPLS [GP_Gibbs] gave 3.5 nM (6 of 6 replicates).
Variant SFDLTKSGMENEQYSIA / ERNVLMT / QDYHRLPLA [En_Gibbs] gave 410 nM (1 of 6 replicates).
Variant HLQEQSFMGQKNYSSMA / NTECKYN / QQYARLPLM [En_Gibbs] gave 65 nM (2 of 6 replicates).
Variant HISQSVGMTSFNKNSVA / ENNTREN / QQYDRLPLS [En_HC] gave 91 nM (1 of 6 replicates).
Variant KISQMSRYEQQNHSSIA / EANTREQ / QSYHRLPLS [En_HC] gave nd (0 of 6 replicates).
Variant TLHANIEYGGIMWSSIA / DNVQRAN / QQYQRLPLG [En_Gibbs] gave 10 nM (6 of 6 replicates).
Variant SLHLYTLTEKNNNNSIA / EKSYRAY / QQYSHLPLV [En_Gibbs] gave 92 nM (6 of 6 replicates).
Variant KSNSSVLYESENKNSIA / SAFTRES / QQYHRLPYS [Ctrl] gave 5.2 µM (2 of 6 replicates).
Variant QIDSFYQHGTDQKQAMA / DVSVRDQ / QQYSRLPLS [En_Gibbs] gave 1.5 nM (6 of 6 replicates).
Variant TLVGNIQGGGWAKKNVA / DEVTRVN / QQYYRLPLS [En_Gibbs] gave 1.5 nM (6 of 6 replicates).
Variant KLMGSMLYEERNWNSVA / HASHRES / QQYHRLPLS [GP_Gibbs] gave 4.9 nM (6 of 6 replicates).
Variant SFERGLAGSSLVQNNVA / EGKTLWE / QQYMRLPLS [En_Gibbs] gave 34 nM (5 of 6 replicates).
Variant TLLYGVTEAAKHGKAIA / GNEERAQ / QQYFRLPLS [En_Gibbs] gave 2.1 nM (6 of 6 replicates).
Variant KFMMSGEYQMHEQHNVA / QTEMKCK / QQYFRLPLT [En_Gibbs] gave 840 pM (6 of 6 replicates).
Variant ALALTLHQNESNQSNIA / QVMEREV / QQYNRLPLG [En_Gibbs] gave 170 nM (6 of 6 replicates).
Variant TISQMWFIESKNRNNVA / EMTTREE / QDYDRLPLS [En_HC] gave 4.0 nM (3 of 6 replicates).
Variant MITEGQLGENKNSSNIA / SQNIKTD / QQYQRLPFV [En_Gibbs] gave 7.8 nM (6 of 6 replicates).
Variant QLLMATMQESYNKNSVA / HAETRED / QSYHRLPLS [En_HC] gave 250 nM (3 of 6 replicates).
Variant MVQQLYNMGTFAINSVA / QASQRNA / QQYDRLPLM [En_Gen] gave 180 nM (4 of 6 replicates).
Variant TVTQMAMTGMKNKRSVA / NATTREP / QQYHRLPLI [En_Gen] gave 50 nM (6 of 6 replicates).
Variant TISQMTSLFSQTINNVA / EVSTREP / QQYDRLPLS [En_Gen] gave 5.5 nM (6 of 6 replicates).
Variant MINQLYNMGQFAINSVA / QASQRNE / QQYDRLPLM [En_Gen] gave 5.0 nM (6 of 6 replicates).
Variant KIGQTLNQLMHQKNNVA / DLVMREK / QQYHRLPLS [En_Gen] gave 4.8 nM (6 of 6 replicates).
Variant RVQINSGHIDMHWYSIA / SASIRAD / QQYERLPLA [En_Gibbs] gave 16 nM (6 of 6 replicates).
Variant RLRELNFESGNARNNIA / DAHIHEV / QQYSWLPLF [En_Gibbs] gave 12 nM (6 of 6 replicates).
Variant KQSQAVPYEQRNKNNVA / QGSTRES / QQYHRLPLS [GP_Gibbs] gave 570 pM (6 of 6 replicates).
Variant MMSQVSGQGTRHRNNVA / QTETREP / QQYDRLPLV [En_Gen] gave 6.0 nM (6 of 6 replicates).
Variant KSSGSVQGEDWNSNSVA / NASQRES / QQYHRLPLS [GP_Gibbs] gave 2.3 nM (6 of 6 replicates).
Variant MFSQMTGLGMKASNSVA / QASTRFE / QQYHRLPLI [En_Gen] gave 2.6 nM (6 of 6 replicates).
Variant TIGASLRYGSRNRSNVA / EVSQRLN / QQYDRLPLM [En_Gen] gave 7.7 nM (6 of 6 replicates).
Variant KLSQSWLYLSRNSNAVA / NASQREQ / QQYHRLPLS [GP_Gibbs] gave 470 pM (6 of 6 replicates).
Variant HISPMQAMHYEAKNQVA / ETEQKYN / QQYIRLPLS [En_Gibbs] gave 3.2 nM (6 of 6 replicates).
Variant MIFYGQERDIAHESSIA / NDMARVK / QQYYRLPLS [En_Gibbs] gave 100 nM (6 of 6 replicates).
Variant KFSYVKEMVNKDQESIA / DAHTVQE / QQYSRLPLA [En_Gibbs] gave 4.4 nM (6 of 6 replicates).
Variant NISIEDYPENNFANNVA / STDCRCD / QQYFMLPLM [En_Gibbs] gave 32 nM (6 of 6 replicates).
Variant IFSQGVMVGWLTRNSVA / NSETRES / QQYDRLPLS [En_HC] gave 4.3 nM (6 of 6 replicates).
Variant TLVDWIQGGTWAKKNVA / DEQTRMN / QQYYRLPLS [En_Gibbs] gave 11 nM (6 of 6 replicates).
Variant ALALTLWQVDSQMNNIA / EGMLRES / QQYNRLPLN [En_Gibbs] gave 480 nM (5 of 6 replicates).
Variant MIEEGHAGEIKNSSNIA / SQDQKSD / QQYQRLPLI [En_Gibbs] gave 190 nM (4 of 6 replicates).
Variant MISQSFLIGSRAKNSVA / QTSTRES / QQYDRLPLI [En_HC] gave 980 pM (6 of 6 replicates).
Variant KMRVSLLQGIYRADSIA / STDIRVL / QQYHHLPLS [En_Gibbs] gave 14 nM (6 of 6 replicates).
Variant TISQMFLGESRMRNSVA / QASTRES / QSYDRLPLS [En_HC] gave 190 nM (6 of 6 replicates).
Variant KLQQADLYESRNANSVA / QASQRLS / QCYHRLPLS [GP_Gibbs] gave 980 pM (6 of 6 replicates).

As a blank, each scFv also met three strains without target: over all light chain designs, 4% of these pairings were detected, typically at 430 nM and seldom below 38 nM.
A sequence measured in both rounds can read differently, since the two assays cover different ranges.

Reference: Li et al. 2023, doi:10.1038/s41467-023-39022-2. File: FLAb, binding data.